The text below walks through data of PubChem BioAssay AID1645870 (National Center for Advancing Translational Sciences (NCATS), 2021).

The chains behind the UniProt entries cited, without tags or fusion partners.
UniProt Q9BV86, whole entry: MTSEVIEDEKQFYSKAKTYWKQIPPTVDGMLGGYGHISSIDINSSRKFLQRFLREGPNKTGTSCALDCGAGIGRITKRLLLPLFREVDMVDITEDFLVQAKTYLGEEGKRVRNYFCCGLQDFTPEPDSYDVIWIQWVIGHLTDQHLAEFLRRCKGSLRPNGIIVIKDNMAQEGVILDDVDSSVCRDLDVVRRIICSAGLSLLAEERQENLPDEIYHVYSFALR

This is a selection; strong and weak results do not stand in their true shares. Records with an inconclusive call do not appear. Some structures show a salt or complex split into parts, the way the source records it. Activity calls are given as the source filed them. Calls follow the shape of the dose curve; as a rule, active = well fitted inhibition curve with a large enough effect; inconclusive = small, poorly fitted or top-dose-only effect; inactive = flat fitted curve, though single readings scatter.

In this assay the target is N-terminal Xaa-Pro-Lys N-methyltransferase 1 (Homo sapiens) (UniProt Q9BV86). Kind of assay: Primary qHTS for Inhibitors of N-terminal methyltransferase 1 (NTMT1): MTaseGlo Assay.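 Also: plate controls were DMSO vehicle for no effect and no enzyme for full effect; nearly all actives have a fitted effect of over 65% in size.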 Particulars: NTMT1 MTase-Glo SAH luminescence, purified enzyme; at 57.5 µM (top of the series) unless noted. The text has this:
Assay Submitter (PI): Rong Huang Ph.D.
Purdue University, West Lafayette, IN 47907
The N-terminal methytransferase 1 is the first methyltransferase that methylates protein alpha-N-amines and plays an important role in regulating cell mitosis, chromatin interactions and DNA repair. It is observed to be over-expressed in various cancer patient tissues like malignant melanoma and colorectal cancer tissues. Knockdown of NTMT1 in cancer cells causes cell mitotic defects and enhances sensitivity to DNA damaging chemotherapeutics. […] These critical cellular processes in which NTMT1 is implicated, coupled with emerging links to cellular dysfunction, strengthen the inference that NTMT1 is a compelling novel anticancer target. Progress have been made in understanding the molecular properties of NTMT1 and the biological consequences of protein alpha-N-terminal methylation, but there are no specific small molecule probes available for NTMT1 to fully characterize its MTase activity. To address this unmet need, a panel of assay is created and established to enable quantitative high-throughput screening (qHTS) for novel, potent, and selective small molecule NTMT1 inhibitors. Two orthogonal qHTS that use different reagents (ThioGlo vs. MTaseGlo) are developed for primary robotic screening against the NCATS chemical library of more than 400,000 small molecules. Identified inhibitors are reacquired, validated, and further characterized.
MTaseGlo Assay is a luminescence screen that measure the activity of methyltransferases based on the reaction product S-adenosyl homocysteine (SAH). The substrate SAM is converted to SAH upon enzyme activation. MTase-Glo reagent and detection solution convert SAH to ATP and measure the light from the luciferase reaction.
Materials: NTMT1 enzyme, substrate SPKRIA, control peptide RCC1-6 is provided by the Huang laboratory.
SEQUENCE No. (e.g., 1, 2, 3, etc.); […] (e.g., Cells, Incubation, Reagent, etc.); VALUE; DESCRIPTION
1; Enzyme; 3 uL; Dispense enzyme mixture (final concentrations of 125 nM NTMT1 and 100 uM SAM) into Greiner 1536-well white / solid bottom assay plate (Greiner Bio One, Monroe, NC).
2; Compounds; 23 nL; Compounds and controls were transferred via a Kalypsys Pin Tool (Wako USA) equipped with a 1536-slotted pin array (Wako Automation, Richmond, VA)
3; Incubation; 15 min; Incubate at room temperature
4; Substrate; 1 uL; Dispense 1 uL of substrate at final concentration of 1 uM. Buffer solution was dispensed in control wells. The assay plate was covered with metal lids.
5; Incubation; 30 min; Incubate at room temperature, protected from lights.
6; Reagent; 1 uL; Dispensed 5x MTase-Glo detection reagent (R) into the assay plate. The plate was covered with metal lids.
7; Incubation; 30 min; Incubate the assay plates at room temperature in the dark to allow for SAH to be converted to ADP.
8; Reagent; 5 uL; Dispense 5 uL of 1x MTase-Glo Detection Solution (R) to allow for ADP to be converted to ATP which was then detected with a luciferase reaction.
9; Centrifuge; 15 sec; Centrifuge the assay plate for 15 seconds at 1000 RPM.
10; Incubation; 30 min; Assay plates were incubation at room temperature in the dark.
11; Detection; Luminescence; Plates were read on ViewLux detector (PerkinElmer). Data were normalized to no-enzyme (0% activity) and no-inhibitor (DMSO; 100%) controls, and the resulting percent inhibition data were fitted to a 4-parameter Hill equation using GraphPad Prism.
On the technique in general: Quantitative high-throughput screening tests each substance at several concentrations.
For `O=[N+]([O-])c1cccc([N+](=O)[O-])c1`, the activity change, negative = inhibition was inactive: 19.2% [at 114 µM].
Take `C/C1=C2N=C(/C=C3N=C(/C(C)=C4\N=C(C(CC(N)=O)C4(C)CCC(=O)NCC(C)OP(=O)([O-])OC4C(CO)OC(n5cnc6cc(C)c(C)cc65)C4O)C4(C)N=C1C(CCC(N)=O)C4(C)CC(N)=O)C(CCC(N)=O)C\3(C)C)C(CCC(N)=O)C/2(C)CC(N)=O.[C-]#N.[Co]` (stereo not given): the activity change, negative = inhibition was inactive: 0.156% [at 29.8 µM].
As to `OCCSCCO`, the activity change, negative = inhibition was inactive: 26.1%.
Regarding `Cc1cccc([N+](=O)[O-])c1[N+](=O)[O-]`, the activity change, negative = inhibition is inactive: 5.76% [at 114 µM].
As for `CCOP(=O)(CC)Oc1ccc([N+](=O)[O-])cc1` (stereo not given), the activity change, negative = inhibition was inactive: 2.5%.
